Data on five compounds can be found in patent US20130310344A1, “N-ACYLSULFONAMIDE APOPTOSIS PROMOTERS” (ASTRAZENECA AB, priority 2010, published 2013).

Amino acid sequences for entries named in this document (tags omitted). Residues count along the entry.
UniProt P10415, 1-204: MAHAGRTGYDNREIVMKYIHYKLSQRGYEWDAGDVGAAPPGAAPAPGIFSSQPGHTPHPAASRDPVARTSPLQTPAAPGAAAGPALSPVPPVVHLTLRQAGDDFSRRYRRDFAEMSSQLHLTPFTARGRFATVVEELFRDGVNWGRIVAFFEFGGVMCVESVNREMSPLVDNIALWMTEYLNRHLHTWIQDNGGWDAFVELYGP
UniProt Q07817, 1-209: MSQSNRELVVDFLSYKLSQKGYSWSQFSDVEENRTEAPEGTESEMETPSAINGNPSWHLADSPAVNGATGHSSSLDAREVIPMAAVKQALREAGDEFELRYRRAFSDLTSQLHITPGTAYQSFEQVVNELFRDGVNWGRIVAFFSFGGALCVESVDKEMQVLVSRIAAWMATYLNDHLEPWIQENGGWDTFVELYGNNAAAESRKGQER

Structures can show the parent of a compound that is named as a salt.

For test [1], the target named is T1, Bcl-2 (Homo sapiens, UniProt P10415).
T1 construct: a c-terminal 6×HIS tagged Bcl-2 (aa 1-204); 6xHis (C)
Briefly: Bcl-2 FP assay (competitive fluorescence polarization binding assay, FITC-Bim BH-3 peptide tracer). To be noted: c-terminal 6×HIS tagged Bcl-2 (aa 1-204), 1.3 nM; 2 nM FITC-Bim peptide tracer. From the text:
(§1) Bcl-xL and Bcl-2 FP binding affinity of compound(s) of Formulae (I), (I-a), (I-b), (I-c), (I-d) and/or (I-e) may be determined using a variety of known methods. One such assay is a sensitive and quantitative in vitro binding assay using fluorescence polarization (“FP”) described by Wang, J.-L.; Zhang, Z-J.; Choksi, S.; Sjam. S.; Lu, Z.; Croce, C. M.; Alnemri, E. S.; Komgold, R.; Huang, Z. Cell permeable Bcl-2 binding peptides: a chemical approach to apoptosis induction in tumor cells. Cancer Res. 2000, 60, 1498-1502).
(§2) Additionally, the binding affinity of compound(s) of Formulae (I), (I-a), (I-b), (I-c), (I-d) and/or (I-e) to Bcl-2 protein in vitro was determined by a competitive binding assay based on fluorescence polarization. For example, fluorescence polarization (“FP”) assays may be developed using a c-terminal 6×HIS tagged Bcl-2 (aa 1-204) and a C-terminal 6×HIS tagged Bcl-XL (aa 1-209). The tracer may be a synthetic peptide BH-3 peptide Bim conjugated to Fluorescein isothiocyanate (FITC—[…]). Dilutions of either Bcl-2 (1.3 nM) or Bcl-XL (0.8 nM) may be added to serial dilutions of antagonist and incubated for one hour prior to the addition of 2 nM of fluorescent peptide tracer (Anaspec, Fremont, Calif.) in the assay buffer. Final assay buffer conditions may be 20 mM HEPES, pH 7.5, 1 mM DTT, 0.005% Tween-20 and 50 mM NaCl. Samples may be read after 20-minute incubation. Fluorescence polarization values may be plotted as a function of the antagonist concentration.
(§3) When tested in an FP assay based on the FP assay described above, the inhibitory activity of the following examples were measured at the IC50s (μM) shown in Table 1.
Background: Polarisation of emitted light reports the rotation of a fluorescent probe.

The target in test [2] is T2, Bcl-XL (Homo sapiens, UniProt Q07817).
T2 construct: a C-terminal 6×HIS tagged Bcl-XL (aa 1-209); 6xHis (C)
In words: Bcl-XL FP assay (competitive fluorescence polarization binding assay, FITC-Bim BH-3 peptide tracer). To be noted: C-terminal 6×HIS tagged Bcl-XL (aa 1-209), 0.8 nM; 2 nM FITC-Bim peptide tracer.
From the text: as §1, §2, §3

In general, IC50 refers to the concentration at which inhibition is half-maximal. High values mean a need for much substance, low ones inhibition by little substance.

Regarding `CCN(CC)CC1CN(CC[C@H](CSc2ccccc2)Nc2ccc(S(=O)(=O)NC(=O)c3ccc(N4CCC([C@@H](O)c5ccccc5-c5ccc(Cl)cc5)CC4)cc3)cc2S(=O)(=O)C(F)(F)F)CCO1` (single isomer, unassigned) [Example 26], the IC50 in test [1] came out at 0.4 nM; in test [2], 0.5 nM.

For `N#C[C@@H](c1ccccc1-c1ccc(Cl)cc1)C1CCN(c2ccc(C(=O)NS(=O)(=O)c3ccc(N[C@H](CCN4CCOCC4)CSc4ccccc4)c(S(=O)(=O)C(F)(F)F)c3)cc2)CC1` [Example 18, 4-(4-((R)-(4′-chlorobiphenyl-2-yl)(cyano)methyl)piperidin-1-yl)-N-(4-((R)-4-morpholino-1-(phenylthio)butan-2-ylamino)-3-(trifluoromethylsulfonyl)phenylsulfonyl)benzamide], the IC50 turned out to be 7 nM in test [1] and 2 nM in test [2]. Taken in the same sequence, the figures for `N#C[C@H](c1ccccc1-c1ccc(Cl)cc1)C1CCN(c2ccc(C(=O)NS(=O)(=O)c3ccc(N[C@H](CCN4CCOCC4)CSc4ccccc4)c(S(=O)(=O)C(F)(F)F)c3)cc2)CC1` [Example 19, 4-(4-((S)-(4′-chlorobiphenyl-2-yl)(cyano)methyl)piperidin-1-yl)-N-(4-((R)-4-morpholino-1-(phenylthio)butan-2-ylamino)-3-(trifluoromethylsulfonyl)phenylsulfonyl)benzamide] were 1200 nM and 8 nM.

`O=C(NS(=O)(=O)c1ccc(N[C@H](CCN2CCOC[C@H]2CO)CSc2ccccc2)c(S(=O)(=O)C(F)(F)F)c1)c1ccc(N2CCC([C@@H](O)c3ccccc3-c3ccc(Cl)cc3)CC2)cc1` [Example 24, 4-(4-((R)-(4′-chlorobiphenyl-2-yl)(hydroxy)methyl)piperidin-1-yl)-N-(4-((R)-4-((R)-3-(hydroxymethyl)morpholino)-1-(phenylthio)butan-2-ylamino)-3-(trifluoromethylsulfonyl)phenylsulfonyl)benzamide, formic acid salt] yielded a half-inhibitory concentration (IC50) in test [2] of 2 nM.

Turning to `O=C(NS(=O)(=O)c1ccc(N[C@H](CCN2CCOC[C@@H]2CO)CSc2ccccc2)c(S(=O)(=O)C(F)(F)F)c1)c1ccc(N2CCC([C@@H](O)c3ccccc3-c3ccc(Cl)cc3)CC2)cc1` [Example 25, 4-(4-((R)-(4′-chlorobiphenyl-2-yl)(hydroxy)methyl)piperidin-1-yl)-N-(4-((R)-4-((S)-3-(hydroxymethyl)morpholino)-1-(phenylthio)butan-2-ylamino)-3-(trifluoromethylsulfonyl)phenylsulfonyl)benzamide, hydrochloride salt], the IC50 in test [2] came out at 2 nM.
